Laboratory results: ChEMBL document CHEMBL4007384, “Synthesis and optimization of furano[3,2-d]pyrimidines as selective spleen tyrosine kinase (Syk) inhibitors” (Bioorg Med Chem Lett, 2016)

Chains of the proteins cited; added tags and fusions are not shown. Lines headed by an entry give the natural chain unless they say otherwise; changes in a name come on top.
UniProt P48729: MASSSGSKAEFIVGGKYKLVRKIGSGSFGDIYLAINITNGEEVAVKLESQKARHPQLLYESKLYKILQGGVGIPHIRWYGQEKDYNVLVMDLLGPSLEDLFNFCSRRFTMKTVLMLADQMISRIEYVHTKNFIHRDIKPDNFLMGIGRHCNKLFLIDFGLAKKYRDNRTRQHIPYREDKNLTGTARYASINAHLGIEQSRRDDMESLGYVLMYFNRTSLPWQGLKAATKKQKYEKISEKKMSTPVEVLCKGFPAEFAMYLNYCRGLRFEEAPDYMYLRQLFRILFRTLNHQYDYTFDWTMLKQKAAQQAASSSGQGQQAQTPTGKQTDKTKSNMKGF
UniProt Q04759: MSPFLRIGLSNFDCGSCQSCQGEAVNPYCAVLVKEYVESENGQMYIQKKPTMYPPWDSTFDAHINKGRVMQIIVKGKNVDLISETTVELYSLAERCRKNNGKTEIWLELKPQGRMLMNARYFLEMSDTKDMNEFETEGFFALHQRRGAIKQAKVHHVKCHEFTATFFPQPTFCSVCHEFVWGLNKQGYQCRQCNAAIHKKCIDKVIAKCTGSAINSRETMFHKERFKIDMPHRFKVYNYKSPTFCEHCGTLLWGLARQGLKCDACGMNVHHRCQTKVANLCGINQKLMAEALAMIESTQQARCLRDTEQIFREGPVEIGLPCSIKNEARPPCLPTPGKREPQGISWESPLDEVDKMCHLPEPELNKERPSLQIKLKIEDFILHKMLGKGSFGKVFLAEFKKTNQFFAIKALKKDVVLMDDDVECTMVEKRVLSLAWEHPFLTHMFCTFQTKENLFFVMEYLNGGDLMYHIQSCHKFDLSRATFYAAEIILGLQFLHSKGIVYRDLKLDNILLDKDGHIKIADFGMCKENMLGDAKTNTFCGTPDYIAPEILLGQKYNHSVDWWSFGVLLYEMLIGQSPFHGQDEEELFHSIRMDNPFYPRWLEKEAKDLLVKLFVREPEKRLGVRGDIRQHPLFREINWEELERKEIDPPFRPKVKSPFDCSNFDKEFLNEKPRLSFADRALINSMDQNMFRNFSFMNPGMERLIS
UniProt P06241, whole entry: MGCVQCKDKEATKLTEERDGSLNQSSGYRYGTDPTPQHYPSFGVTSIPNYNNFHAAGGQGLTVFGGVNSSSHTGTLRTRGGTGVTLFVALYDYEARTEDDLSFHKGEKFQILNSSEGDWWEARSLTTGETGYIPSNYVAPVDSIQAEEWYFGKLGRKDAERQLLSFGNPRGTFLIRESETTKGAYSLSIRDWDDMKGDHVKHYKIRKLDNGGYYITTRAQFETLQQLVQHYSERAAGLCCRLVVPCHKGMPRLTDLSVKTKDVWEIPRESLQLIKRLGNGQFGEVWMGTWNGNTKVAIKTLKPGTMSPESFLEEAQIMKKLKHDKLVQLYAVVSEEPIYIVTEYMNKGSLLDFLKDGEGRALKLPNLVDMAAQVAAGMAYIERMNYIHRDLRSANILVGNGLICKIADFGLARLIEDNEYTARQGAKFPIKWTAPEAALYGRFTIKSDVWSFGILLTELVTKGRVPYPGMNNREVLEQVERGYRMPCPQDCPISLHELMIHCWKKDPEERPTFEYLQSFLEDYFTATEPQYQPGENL

Legend:
[1] = molecular target: Casein kinase I isoform alpha (Homo sapiens, UniProt P48729); experiment: Inhibition of CK1alpha1 (unknown origin) after 60 mins by TR-FRET assay
[2] = molecular target: Protein kinase C theta type (Homo sapiens, UniProt Q04759); experiment: Inhibition of PKCtheta (unknown origin) after 60 mins by TR-FRET assay
[3] = molecular target: Tyrosine-protein kinase Fyn (Homo sapiens, UniProt P06241); experiment: Inhibition of Fyn (unknown origin) after 60 mins by TR-FRET assay

## FC(F)(F)CNc1nc(Nc2ccc3cn[nH]c3c2)nc2ccoc12
[1]
  IC50: 5.22 µM
[2]
  IC50: > 10 µM
[3]
  IC50: 5.33 µM
